Literature values in US20070199084A1, “Ubiquitination of Membrane Transporters” (VANDERBILT UNIVERSITY, priority 2005, published 2007).

Chains of the proteins cited; added tags and fusions are not shown. Residues count along the entry.
UniProt A0A8I3S5A0, 1-617: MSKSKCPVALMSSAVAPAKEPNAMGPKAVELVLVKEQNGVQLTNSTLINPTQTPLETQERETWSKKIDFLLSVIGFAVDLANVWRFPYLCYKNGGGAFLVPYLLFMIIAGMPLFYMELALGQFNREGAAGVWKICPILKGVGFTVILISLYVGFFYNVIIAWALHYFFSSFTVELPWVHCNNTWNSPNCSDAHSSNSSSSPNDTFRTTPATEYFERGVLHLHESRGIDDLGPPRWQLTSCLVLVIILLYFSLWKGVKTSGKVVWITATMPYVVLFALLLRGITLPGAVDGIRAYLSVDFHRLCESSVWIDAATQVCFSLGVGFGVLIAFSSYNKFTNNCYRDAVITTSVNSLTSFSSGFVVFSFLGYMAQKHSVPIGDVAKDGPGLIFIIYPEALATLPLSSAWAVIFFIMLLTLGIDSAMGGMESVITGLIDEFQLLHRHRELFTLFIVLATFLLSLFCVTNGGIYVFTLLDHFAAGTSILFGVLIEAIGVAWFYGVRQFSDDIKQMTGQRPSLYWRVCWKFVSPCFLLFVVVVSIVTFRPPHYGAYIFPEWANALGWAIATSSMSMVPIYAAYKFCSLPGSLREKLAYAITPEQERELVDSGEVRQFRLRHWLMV

Molecular target: T1, dopamine transporter (Canis lupus familiaris, UniProt A0A8I3S5A0)
T1 construct: digitonin-solubilized dopamine transporters from dog caudate nucleus; from tissue; host or cells: dog caudate nucleus, digitonin-solubilized extract
Settings: digitonin-solubilized extract of dog caudate; cited from earlier work

## (−)-cocaine
  inhibition of soluble [3H]WIN 35,428 binding (competition studies): strongly
